According to patent EP4790067A1, “CHIMERIC ADAPTER PROTEIN COMPRISING O6-BENZYLGUANINE BINDING PROTEIN, AND EXTRACELLULAR VESICLE COMPRISING SAME” (priority 2023, dated 2025):

Key:
A549-Luc2 cells [1] = test: Tumor targeting / biodistribution of DiR-labeled sEVs in tumor-bearing mice; format: in vivo, BALB/c-nu mice; details: intravenous; 4 hours after injection; compared to non-targeted sEVs (wt sEV and sEV-CAP without Y)
Protocol: A schematic diagram of the drug administration schedule in mice for the tumor targeting analysis of cetuximab (ScFv-Fc format)-conjugated […] is shown in FIG. 24. […] All animal experiments were performed in accordance with the animal experiment guidelines approved by the Institutional Animal Care and Use Committee (IACUC) of DGIST (approval number 23032701-0000). Male BALB/c-nu mice (6 to 8 weeks old, Orient Bio) were used for the study. A549-Luc2 cells (1 × 10^7 cells in 100 μl of PBS) were mixed with an equal volume of Matrigel (Corning) and then subcutaneously injected into the mice. Tumor volume (V) was calculated as V = length × width^2 / 2. To analyze the biodistribution of sEVs, the mice were randomly grouped when the tumor volume reached approximately 600 mm^3. PBS or DiR-labeled sEVs (2 × 10^11 particles per mouse) were intravenously injected via the tail vein. The mice were euthanized 4 hours after injection, and major organs (tumor, heart, lungs, liver, spleen, and kidneys) were collected to quantify fluorescence signals using an in vivo imaging system (Perkin Elmer, IVIS Spectrum). […] Before euthanasia, bioluminescence signals were detected using an in vivo imaging system, and tumor tissue was excised, weighed, and subjected to histological analysis.

[2] = test system: A549 human lung cancer cells; test: sEV cellular uptake assay (time-lapse EGFP fluorescence imaging, MSD analysis of trajectories); format: cell-based
Protocol: First, cellular uptake efficiency of sEV-Y, which targets EGFR as a specific antigen, in A549 human lung cancer cells was investigated using time-lapse fluorescence imaging and EGFP fluorescence intensity, with the results shown in FIGS. 17 and 18. Additionally, representative mean square displacement (MSD) analysis was performed on trajectories showing directional movement 2 hours after treatment. Diffusion types are classified into superdiffusion (active transport), normal diffusion (random movement), and confined diffusion (restricted movement). A549-Luc2 cells were seeded in a fibronectin-coated dish at a density of 5 × 10^3 cells per well. After 24 hours, the cells were incubated with different treatments according to the experimental focus. To prepare cetuximab-conjugated sEVs, cetuximab was first reacted with a 20-fold molar excess of BG-GLA-NHS for 30 minutes at room temperature. Then, the mixture was subjected to a 7 K MWCO Zeba spin desalting column to remove unconjugated BG-GLA-NHS. […] The green fluorescence of the sEVs and the red fluorescence of the Dox were observed using an epi-fluorescence microscope. […] Thereafter, the cells were washed with 1 ml of PBS to remove extracellular sEVs, and the sEVs internalized into the cells were imaged to quantify delivery efficiency. In addition, fluorescence trajectories of individual sEVs in the cells were obtained. […]

A549 cells [3] = test: MTS assay (cell viability / cytotoxicity); format: cell-based, human; details: 48 hours after treatment
Protocol: Specifically, doxorubicin (Dox), a chemotherapy drug, was encapsulated in sEV-CAP through electroporation and then conjugated with Y to produce sEV(Dox)-Y. To confirm the internal loading of Dox, the co-localization of EGFP and Dox fluorescence in sEV-CAP was verified through TIRF imaging, with the results shown in FIG. 21. […] In addition, cytotoxicity induced by sEV(Dox)-Y was evaluated 48 hours after treating A549 cells with sEV(Dox)-Y, with the results shown in FIG. 23. A549-Luc2 cells were seeded in a 96-well plate at a density of 1 × 10^4 cells per well. After 24 hours, the cells were cultured with Dox or sEVs loaded with Dox. Cell viability was analyzed using a CellTiter 96® AQueous one solution reagent. After adding 20 µl of the reagent, the microplate was incubated under humidified conditions (37 °C, 5 % CO2) for 1 hour, and then absorbance was measured at 490 nm.

A549-Luc2 cells [4] = test: TUNEL analysis and histopathological analysis (hematoxylin and eosin) of tumor tissue after drug treatment; format: in vivo, BALB/c-nu mice
Protocol: To further evaluate the apoptosis enhanced by sEV(Dox)-Y, terminal deoxynucleotidyl transferase dUTP nick end labeling (TUNEL) analysis was performed, with the results shown in FIG. 33, and histopathological analysis was performed, with the results shown in FIG. 34.
The tissues harvested from mice in Reference Example 14 were fixed in 4 % paraformaldehyde, dehydrated with 30 % sucrose in PBS, and then embedded in OCT compound. The frozen tissues were sectioned at a thickness of 10 µm, and the slides were washed with PBS. Apoptosis was detected using a TUNEL assay kit following the manufacturer's instructions. Nuclei were stained with DAPI for 5 minutes at room temperature. After washing with PBS, the samples were mounted using an antifade mounting medium. For hematoxylin and eosin staining, the slides were stained with hematoxylin for 3 minutes and washed with sterile distilled water. Subsequently, the slides were stained with eosin for 1 minute and washed with water. After dehydration in 95 % and absolute ethanol, the samples were mounted using a mounting medium.

A549 cells [5] = test: Dox cellular uptake / drug delivery assay (fluorescence imaging 2 hours after treatment); format: cell-based, human; details: versus sEV(Dox) without Y
Protocol: Specifically, doxorubicin (Dox), a chemotherapy drug, was encapsulated in sEV-CAP through electroporation and then conjugated with Y to produce sEV(Dox)-Y. To confirm the internal loading of Dox, the co-localization of EGFP and Dox fluorescence in sEV-CAP was verified through TIRF imaging, with the results shown in FIG. 21. […] In addition, cytotoxicity induced by sEV(Dox)-Y was evaluated 48 hours after treating A549 cells with sEV(Dox)-Y, with the results shown in FIG. 23. A549-Luc2 cells were seeded in a fibronectin-coated dish at a density of 5 × 10^3 cells per well. After 24 hours, the cells were incubated with different treatments according to the experimental focus. To prepare cetuximab-conjugated sEVs, cetuximab was first reacted with a 20-fold molar excess of BG-GLA-NHS for 30 minutes at room temperature. Then, the mixture was subjected to a 7 K MWCO Zeba spin desalting column to remove unconjugated BG-GLA-NHS. […] The green fluorescence of the sEVs and the red fluorescence of the Dox were observed using an epi-fluorescence microscope. […] Thereafter, the cells were washed with 1 ml of PBS to remove extracellular sEVs, and the sEVs internalized into the cells were imaged to quantify delivery efficiency. In addition, fluorescence trajectories of individual sEVs in the cells were obtained. […]

A549-Luc2 cells [6] = test: Therapeutic efficacy of Dox-loaded sEVs in tumor-bearing mice (bioluminescence, tumor volume and weight); format: in vivo, BALB/c-nu mice; details: Dox 1 mg kg^-1 intravenously six times at three-day intervals
Protocol: A schematic diagram of the drug administration schedule in mice for a test confirming the drug delivery capability of cetuximab (ScFv-Fc format)-conjugated […] is shown in FIG. 28. Tumor-bearing mice were treated with an equivalent dose (1 mg kg^-1) of Dox, administered either in soluble form or encapsulated in non-targeted and targeted […], respectively). First, tumor bioluminescence was measured on the day of euthanasia after the administration of PBS, Dox, sEV(Dox), or sEV(Dox)-Y, and the quantified results are shown in FIG. 29. All animal experiments were performed in accordance with the animal experiment guidelines approved by the Institutional Animal Care and Use Committee (IACUC) of DGIST (approval number 23032701-0000). Male BALB/c-nu mice (6 to 8 weeks old, Orient Bio) were used for the study. […] Tumor volume (V) was calculated as V = length × width^2 / 2. […] The mice were euthanized 4 hours after injection, and major organs (tumor, heart, lungs, liver, spleen, and kidneys) were collected to quantify fluorescence signals using an in vivo imaging system (Perkin Elmer, IVIS Spectrum). […] Before euthanasia, bioluminescence signals were detected using an in vivo imaging system, and tumor tissue was excised, weighed, and subjected to histological analysis.

| Substance | accumulation at the tumor site (DiR fluorescence intensity) (A549-Luc2 cells [1]) | improvement in specific targeting (amount of sEV on the cell surface, EGFP fluorescence intensity) ([2]; compared with the sEV-CAP without Y, over 1 hour after treatment) | internalization and diffusion type (MSD analysis) ([2]; trajectories 2 hours after treatment) | cytotoxicity (A549 cells [3]) | histopathology of tumor tissue (A549-Luc2 cells [4]; hematoxylin and eosin staining after drug treatment) | level of GFP bound to fragmented DNA (TUNEL signal), increase (A549-Luc2 cells [4]; tumor tissue after drug treatment, compared to the control group) [fold] | drug delivery efficiency (A549 cells [5]) | reduction of tumor bioluminescence (A549-Luc2 cells [6]; day of euthanasia, compared to the untreated control group) [%] | tumor growth (tumor volume and weight) (A549-Luc2 cells [6]; measured after euthanasia) |
| --- | --- | --- | --- | --- | --- | --- | --- | --- | --- |
| sEV-Y | significant accumulation at the tumor site | approximately 3.8 fold | internalized and exhibited superdiffusion |  |  |  |  |  |  |
| sEV(Dox)-Y |  |  |  | significantly increased cytotoxicity | severe destruction of tissue structure and extensive necrosis within the tumor | 4.8 | improved drug delivery efficiency | 90 | inhibited tumor growth more effectively |
